# Tests used:
# Chains of the proteins cited; added tags and fusions are not shown.
# UniProt P42336, whole entry: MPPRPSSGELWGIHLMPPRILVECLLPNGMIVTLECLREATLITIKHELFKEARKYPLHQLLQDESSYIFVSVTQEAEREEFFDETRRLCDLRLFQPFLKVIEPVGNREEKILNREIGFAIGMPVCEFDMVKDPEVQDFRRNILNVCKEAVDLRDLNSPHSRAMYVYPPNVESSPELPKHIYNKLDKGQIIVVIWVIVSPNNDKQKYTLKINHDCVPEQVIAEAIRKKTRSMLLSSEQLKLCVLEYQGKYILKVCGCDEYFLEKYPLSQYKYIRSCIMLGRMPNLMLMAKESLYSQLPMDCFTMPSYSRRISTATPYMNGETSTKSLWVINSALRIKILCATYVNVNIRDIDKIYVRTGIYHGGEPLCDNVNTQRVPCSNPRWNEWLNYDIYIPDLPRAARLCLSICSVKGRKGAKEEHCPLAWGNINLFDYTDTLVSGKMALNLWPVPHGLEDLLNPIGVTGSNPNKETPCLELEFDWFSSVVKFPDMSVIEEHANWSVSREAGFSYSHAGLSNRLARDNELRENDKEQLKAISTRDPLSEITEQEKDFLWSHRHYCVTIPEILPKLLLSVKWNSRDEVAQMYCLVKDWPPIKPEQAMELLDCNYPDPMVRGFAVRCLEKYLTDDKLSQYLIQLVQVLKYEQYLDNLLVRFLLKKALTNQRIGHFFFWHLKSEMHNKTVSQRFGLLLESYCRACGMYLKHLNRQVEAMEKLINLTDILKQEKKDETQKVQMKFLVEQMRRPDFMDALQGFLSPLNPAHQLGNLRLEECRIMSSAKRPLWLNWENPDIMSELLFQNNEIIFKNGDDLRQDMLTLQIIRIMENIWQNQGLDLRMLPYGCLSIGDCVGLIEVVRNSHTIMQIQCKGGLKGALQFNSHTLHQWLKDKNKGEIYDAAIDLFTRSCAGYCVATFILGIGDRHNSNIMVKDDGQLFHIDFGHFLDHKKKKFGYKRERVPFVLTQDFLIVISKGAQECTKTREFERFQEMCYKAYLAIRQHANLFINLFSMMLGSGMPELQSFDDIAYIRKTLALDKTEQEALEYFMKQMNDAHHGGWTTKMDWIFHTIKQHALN
# UniProt P27986, whole entry partner: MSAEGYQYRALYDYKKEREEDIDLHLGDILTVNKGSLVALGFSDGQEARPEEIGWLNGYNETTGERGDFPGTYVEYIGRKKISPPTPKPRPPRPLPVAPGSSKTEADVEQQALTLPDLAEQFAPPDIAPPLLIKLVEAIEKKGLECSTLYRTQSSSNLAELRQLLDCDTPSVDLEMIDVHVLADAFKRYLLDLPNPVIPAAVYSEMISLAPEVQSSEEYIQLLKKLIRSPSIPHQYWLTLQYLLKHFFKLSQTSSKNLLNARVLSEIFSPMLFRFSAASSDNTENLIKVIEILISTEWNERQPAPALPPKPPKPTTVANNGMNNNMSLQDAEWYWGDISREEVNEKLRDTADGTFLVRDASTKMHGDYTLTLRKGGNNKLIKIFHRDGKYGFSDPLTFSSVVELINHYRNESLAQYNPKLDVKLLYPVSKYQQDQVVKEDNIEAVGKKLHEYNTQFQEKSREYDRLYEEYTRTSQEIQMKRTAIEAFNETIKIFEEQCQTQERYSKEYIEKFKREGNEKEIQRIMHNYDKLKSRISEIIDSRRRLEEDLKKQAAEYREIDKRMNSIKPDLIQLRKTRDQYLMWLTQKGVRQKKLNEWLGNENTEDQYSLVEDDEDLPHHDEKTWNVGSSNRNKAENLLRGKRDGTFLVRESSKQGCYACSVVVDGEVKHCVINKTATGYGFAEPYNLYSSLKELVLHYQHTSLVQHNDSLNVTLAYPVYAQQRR
# [1] = test system: phosphorylation of Serine 473 in Akt in MDA-MB-468 human breast adenocarcinoma cell line; assay: In vitro phospho-Ser473 Akt assay, Test (c); type: cell-based; details: read-out: IC50 (inhibition of Serine 473 phosphorylation in Akt), MDA-MB-468 cells
# p110α Type Ia human PI3K = p110α Type Ia human PI3K (Homo sapiens, UniProt P42336); assay: In vitro PI3K enzyme assay (AlphaScreen), Test (a); type: biochemical; details: read-out: IC50 versus p110α Type Ia human PI3K
smiles,measurement,setting,value
COc1cccc2c1nc(C(F)F)n2-c1nc(N2CCOCC2)cc(N2CCN(C(=O)CN)CC2)n1,IC50,[1],60 nM
same,IC50,p110α Type Ia human PI3K,20 nM

# Reference: patent US20090270390A1, “PYRIMIDINE DERIVATIVES” (AstraZeneca, priority 2006, published 2009)
